In IntAct's records for PubMed 31064842:

B1: Proteasomal ubiquitin receptor ADRM1 (Homo sapiens), Q16186 (parent)
chain: MTTSGALFPSLVPGSRGASNKYLVEFRAGKMSLKGTTVTPDKRKGLVYIQQTDDSLIHFCWKDRTSGNVEDDLIIFPDDCEFKRVPQCPSGRVYVLKFKAGSKRLFFWMQEPKTDQDEEHCRKVNEYLNNPPMPGALGASGSSGHELSALGGEGGLQSLLGNMSHSQLMQLIGPAGLGGLGGLGALTGPGLASLLGSSGPPGSSSSSSSRSQSAAVTPSSTTSSTRATPAPSAPAAASATSPSPAPSSGNGASTAASPTQPIQLSDLQSILATMNVPAGPAGGQQVDLASVLTPEIMAPILANADVQERLLPYLPSGESLPQTADEIQNTLTSPQFQQALGMFSAALASGQLGPLMCQFGLPAEAVEAANKGDVEAFAKAMQNNAKPEQKEGDTKDKKDEEEDMSLD

How the values were obtained:
[1] = variants of: B1; conditions: with psmd1_human PSMD1, Q99460
[2] = variants of: B1; conditions: with psmd1_human PSMD1, Q99460; remark: listed apart in the source

| Variant | effect of a mutation on the interaction [1] | effect of a mutation on the interaction [2] |
| --- | --- | --- |
| K97D | disrupting interaction strength | decreasing interaction strength |
| K97E | disrupting interaction strength | decreasing interaction strength |
| K97A | decreasing interaction strength | – |
| K83A | decreasing interaction strength | with no effect |

Second part, the variant after the results:

| effect of a mutation on the interaction [1] | effect of a mutation on the interaction [2] | Variant |
| --- | --- | --- |
| disrupting interaction strength | decreasing interaction strength | R104D |
| disrupting interaction strength | decreasing interaction strength | R104E |
| decreasing interaction strength | – | R104A |
